# Results: ChEMBL document CHEMBL2177065, “14-Alkoxy- and 14-acyloxypyridomorphinans: μ agonist/δ antagonist opioid analgesics with diminished tolerance and dependence side effects” (J Med Chem, 2012)
# Tests used:
# [1] = Selectivity ratio of Ki for kappa opioid receptor to Ki for delta opioid receptor
# [2] = Selectivity ratio of Ki for mu opioid receptor to Ki for delta opioid receptor
SMILES,Ratio Ki [1],Ratio Ki [2]
Oc1ccc2c3c1O[C@H]1c4ncc(-c5ccc(Cl)cc5)cc4C[C@@]4(O)[C@@H](C2)N(CC2CC2)CC[C@]314,9,23
CN1CC[C@]23c4c5ccc(O)c4O[C@H]2c2ncc(-c4ccc(Cl)cc4)cc2C[C@@]3(O)[C@H]1C5,120,59
